The test has as its target T1, Cytochrome P450 11B2, mitochondrial (Homo sapiens, UniProt P19099).
T1 sequence (P19099 whole entry): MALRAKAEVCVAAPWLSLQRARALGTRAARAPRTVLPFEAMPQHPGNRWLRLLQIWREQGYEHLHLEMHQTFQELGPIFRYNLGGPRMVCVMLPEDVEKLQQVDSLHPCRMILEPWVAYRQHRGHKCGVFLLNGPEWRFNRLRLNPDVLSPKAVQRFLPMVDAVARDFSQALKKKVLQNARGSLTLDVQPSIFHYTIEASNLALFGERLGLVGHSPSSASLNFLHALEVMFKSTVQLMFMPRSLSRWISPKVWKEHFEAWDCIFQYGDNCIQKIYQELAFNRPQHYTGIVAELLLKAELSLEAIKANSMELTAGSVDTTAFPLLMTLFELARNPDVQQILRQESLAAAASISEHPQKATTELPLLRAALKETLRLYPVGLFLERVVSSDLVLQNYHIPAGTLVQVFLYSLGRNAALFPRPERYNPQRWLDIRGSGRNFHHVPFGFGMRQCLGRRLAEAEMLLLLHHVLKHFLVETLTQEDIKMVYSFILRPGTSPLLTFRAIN
The test can be described thus: Inhibition of human CYP11B2 expressed in hamster V79MZh cells using [1,2-3H]-11-deoxycorticosterone as substrate. Type of test: cell-based. An outline of the steps:
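V79MZh hamster fibroblasts expressing human CYP11B1 or CYP11B2 were incubated with [1,2-3H]-11-deoxycorticosterone (100 nM) plus inhibitor at a range of concentrations. […] The selectivity factor is IC50(CYP11B2)/IC50(CYP11B1).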

As a reminder, the IC50 is the concentration needed to halve the response being measured. Lower therefore signals greater potency in that assay. `CC(C)(C(=O)c1cccnc1)c1cccnc1` [METYRAPONE] returned an IC50 of 0.042 µM.

Source of the values: ChEMBL document CHEMBL2417547, “Cushing's syndrome: development of highly potent and selective CYP11B1 inhibitors of the (pyridylmethyl)pyridine type” (J Med Chem, 2013).
